Experimental data published in patent US11161831B2, “Methods and compositions for treatment of muscle wasting, muscle weakness, and/or cachexia” (Baylor College of Medicine, priority 2013, dated 2021).

The chains behind the UniProt entries cited, without tags or fusion partners. Residues count along the entry.
UniProt P40763, 2-770 limits assumed: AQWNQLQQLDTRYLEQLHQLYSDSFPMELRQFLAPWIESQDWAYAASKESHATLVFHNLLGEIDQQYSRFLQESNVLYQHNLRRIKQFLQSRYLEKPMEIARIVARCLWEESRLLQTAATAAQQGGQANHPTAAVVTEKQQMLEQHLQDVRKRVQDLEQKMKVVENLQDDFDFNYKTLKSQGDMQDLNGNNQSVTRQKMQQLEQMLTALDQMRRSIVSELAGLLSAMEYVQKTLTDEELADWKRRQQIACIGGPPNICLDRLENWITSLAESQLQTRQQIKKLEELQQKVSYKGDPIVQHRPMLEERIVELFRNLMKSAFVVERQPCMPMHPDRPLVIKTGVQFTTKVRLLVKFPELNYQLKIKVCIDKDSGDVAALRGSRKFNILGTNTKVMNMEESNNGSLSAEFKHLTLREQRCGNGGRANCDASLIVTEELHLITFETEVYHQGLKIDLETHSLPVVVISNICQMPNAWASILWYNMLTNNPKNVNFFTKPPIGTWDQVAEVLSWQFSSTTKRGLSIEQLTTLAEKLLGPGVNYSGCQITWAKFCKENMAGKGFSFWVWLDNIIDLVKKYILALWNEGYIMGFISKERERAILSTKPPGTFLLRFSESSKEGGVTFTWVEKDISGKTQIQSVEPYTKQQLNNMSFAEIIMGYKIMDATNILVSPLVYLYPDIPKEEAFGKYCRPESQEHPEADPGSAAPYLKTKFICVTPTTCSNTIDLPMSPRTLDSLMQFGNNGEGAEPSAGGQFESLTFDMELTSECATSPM

Molecular target: T1, Stat3:hSIE complexes (Homo sapiens, UniProt P40763)
T1 construct: endogenous in cells; host or cells: HepG2
Assay: Electrophoretic mobility shift assay (EMSA), Stat3 binding to hSIE duplex oligonucleotide
Type: biochemical
Settings: extracts of IL-6-stimulated HepG2 cells, compound 300 µM
Description: Electrophoretic mobility shift assays were performed using whole-cell extracts prepared from HepG2 cells without and with stimulation with IL-6 (30 ng/ml) for 30 min. Protein (20 μg) was incubated with radiolabeled duplex oligonucleotide (hSIE) and DMSO without or with the indicated compounds (300 uM) for 60 minutes at 37° C. then separated by PAGE. The gel was dried and autoradiographed; the portion of the gel corresponding to the Stat3-bound hSIE band is shown. Data shown are representative of 2 studies.
Electrophoretic Mobility Shift Assay (EMSA): EMSA was performed using the hSIE radiolabeled duplex oligonucleotide as a probe as described (Tweardy et al., 1995). Briefly, high salt extracts were prepared from HepG2 cells incubated without or with IL-6 (30 ng/ml) for 30 minutes. Protein concentration was determined by Bradford Assay and 20 ug of extract was incubated with compound (300 uM) for 60 minutes at 37° C. […] Gels were dried and autoradiographed.
Once in the nucleus, Stat3 dimers bind to specific DNA elements to activate and, in some instances, repress gene transcription. […] Compounds that bind to the phosphopeptide-binding site of Stat3 might be expected to do the same. […]

## COC(=O)Cc1c(C)c2ccc(OCc3ccc(C(=O)OC)cc3)c(C)c2oc1=O [Cpd3-7, methyl 4-({[3-(2-methyoxy-2-oxoethyl)-4,8-dimethyl-2-oxo-2H-chromen-7-yl]oxy}methyl)benzoate]
  amount of hSIE shifted (Stat3:hSIE band intensity): reduced the amount of hSIE shifted by half or greater
